Measurements taken from PubChem BioAssay AID938 (National Center for Advancing Translational Sciences (NCATS), 2007).
The list shows a part of the results, in another mix than the full data. Results filed as inconclusive are left out. The source made the active and inactive calls. Calls come from the whole dose curve; as a rule, active = well fitted activation curve with a large enough effect; inconclusive = small, poorly fitted or top-dose-only effect; inactive = no such curve, though single readings can be large or run the other way.

Experiment: qHTS Assay for Agonists of the Thyroid Stimulating Hormone Receptor: Activators of Intracellular cAMP Concentrations in Parental HEK 293; note: % of control where 0% means no effect; nearly all actives have a fitted effect of over 55% in size
Details: parental HEK293 CNG cAMP sensor, membrane potential fluorescence; at 57.1 µM unless noted

**Q.** With COc1ccc(NC2CCN(CCc3ccccc3)CC2)c(OC)c1 as the compound, how does the activation read?
**A.** inactive: -14.7%

**Q.** For O=C(OC1CN2CCC1CC2)C1c2ccccc2Oc2ccccc21 (stereo not given), which activation is on record?
**A.** inactive: 22.3%

**Q.** Which activation does the source give for NC1CCCCC1.NP(=O)(O)N(CCCl)CCCl here?
**A.** inactive: 1.5% [at 11.4 µM]

**Q.** With CCOP(=O)(Cl)Cl as the compound, how does the activation read?
**A.** inactive: -1.35%

**Q.** For N#CC1(Nc2ccccc2)CCN(CCc2ccccc2)CC1, which activation is on record?
**A.** inactive: 11.2%

**Q.** For ClCCOP(OCCCl)OCCCl, which activation is on record?
**A.** inactive: 20.5%

**Q.** For N/C(=N\O)c1c(N)no[n+]1[O-], which activation is on record?
**A.** inactive: 2.04%

**Q.** Which activation does the source give for CCC(CO)(C(=O)OC1CN2CCC1CC2)c1ccccc1 (stereo not given) here?
**A.** inactive: 4.3%

**Q.** Which activation does the source give for O=C(O)C1(Nc2ccccc2)CCN(Cc2ccccc2)CC1 here?
**A.** inactive: -8.6% [at 11.4 µM]

**Q.** With Fc1ccccc1NC1CCN(Cc2ccccc2)CC1 as the compound, how does the activation read?
**A.** inactive: 15.9%
